How the values were obtained:
[1] = target: T1, TGF-beta receptor type-1 (Homo sapiens) (UniProt P36897); test: Inhibition of ALK5 in human LX2 cells assessed as reduction in TGFbeta-induced collagen 1 production pretreated for 1 hr followed by TGFbeta addition and measured after 12 hrs by DAPI staining based immunocytochemistry analysis by confocal laser scanning microscopic method; type: cell-based
T1 sequence (whole entry): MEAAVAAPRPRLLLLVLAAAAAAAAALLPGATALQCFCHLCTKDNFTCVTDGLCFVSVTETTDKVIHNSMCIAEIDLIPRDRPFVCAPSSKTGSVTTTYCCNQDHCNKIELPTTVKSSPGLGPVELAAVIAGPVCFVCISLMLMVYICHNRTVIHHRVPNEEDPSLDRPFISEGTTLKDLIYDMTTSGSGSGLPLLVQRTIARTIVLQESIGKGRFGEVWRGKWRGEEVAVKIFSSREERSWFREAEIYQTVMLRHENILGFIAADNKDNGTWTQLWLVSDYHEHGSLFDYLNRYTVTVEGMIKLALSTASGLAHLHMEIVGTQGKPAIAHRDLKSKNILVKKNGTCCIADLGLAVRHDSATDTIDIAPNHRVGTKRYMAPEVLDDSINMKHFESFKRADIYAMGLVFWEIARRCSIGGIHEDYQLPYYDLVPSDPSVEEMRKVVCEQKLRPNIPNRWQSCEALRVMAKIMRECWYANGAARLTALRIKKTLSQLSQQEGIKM

[2] = target: T1, TGF-beta receptor type-1 (Homo sapiens); test: Inhibition of ALK5 in human LX2 cells assessed as reduction in TGFbeta-induced alphaSMA production pretreated for 1 hr followed by TGFbeta addition and measured after 12 hrs by DAPI staining based immunocytochemistry analysis by confocal laser scanning microscopic method; type: cell-based

inhibition [1] | inhibition [2] | Structure (SMILES)
Dose-dependent effect | Dose-dependent effect | Cc1cccc(-c2nn(CC(=O)Nc3ccccc3)cc2-c2cc3cnccc3s2)n1
Dose-dependent effect | Dose-dependent effect | Cc1cccc(-c2nn(CC(=S)Nc3cccc(F)c3)cc2-c2ccc3nsnc3c2)n1

From ChEMBL document CHEMBL4359846, “Design, synthesis, and antifibrosis evaluation of 4-(benzo-[c][1,2,5]thiadiazol-5-yl)-3(5)-(6-methyl- pyridin-2-yl)pyrazole and 3(5)-(6-methylpyridin- 2-yl)-4-(thieno-[3,2,-c]pyridin-2-yl)pyrazole derivatives” (Eur J Med Chem, 2019)
